Molecular target: 5-hydroxytryptamine receptor 1A (Rattus norvegicus, UniProt P19327)
Assay: Compound was evaluated for its binding affinity against 5-hydroxytryptamine 1A receptor from rat cerebral cortex
Format: tissue-based

Protein sequences, listed by entry. Tags and fused reporters are not part of them.
UniProt P19327, whole entry: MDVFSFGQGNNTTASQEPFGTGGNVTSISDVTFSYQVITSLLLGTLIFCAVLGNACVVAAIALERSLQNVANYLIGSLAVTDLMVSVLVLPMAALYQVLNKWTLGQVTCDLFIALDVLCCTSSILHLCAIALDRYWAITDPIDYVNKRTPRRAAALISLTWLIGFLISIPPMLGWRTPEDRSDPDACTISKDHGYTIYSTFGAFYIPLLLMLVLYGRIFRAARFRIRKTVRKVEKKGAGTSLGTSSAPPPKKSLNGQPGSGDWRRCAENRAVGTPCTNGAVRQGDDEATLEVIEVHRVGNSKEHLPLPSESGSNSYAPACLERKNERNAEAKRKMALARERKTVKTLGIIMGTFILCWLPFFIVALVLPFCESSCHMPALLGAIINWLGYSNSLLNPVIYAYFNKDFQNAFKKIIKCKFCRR

| Structure (SMILES) | Ki [µM] |
| --- | --- |
| COCCN1CCN(Cc2cccc(C(=O)N3CCCCCC3)c2)CC1 | > 1 |
| CN1CCN(Cc2cccc(C(=O)N3CCCCC3)c2)CC1 | > 1 |

Source: ChEMBL document CHEMBL1131239, “Orally active benzamide antipsychotic agents with affinity for dopamine D2, serotonin 5-HT1A, and adrenergic alpha1 receptors” (J Med Chem, 1998)
